Target: Sodium- and chloride-dependent GABA transporter 1 (Homo sapiens, UniProt P30531)
Test: Binding affinity to GAT1

By UniProt entry, the sequences of proteins in these tests, tags left out. Where a name states a change or a piece, a line headed by the entry shows the natural chain unless it says otherwise.
UniProt P30531: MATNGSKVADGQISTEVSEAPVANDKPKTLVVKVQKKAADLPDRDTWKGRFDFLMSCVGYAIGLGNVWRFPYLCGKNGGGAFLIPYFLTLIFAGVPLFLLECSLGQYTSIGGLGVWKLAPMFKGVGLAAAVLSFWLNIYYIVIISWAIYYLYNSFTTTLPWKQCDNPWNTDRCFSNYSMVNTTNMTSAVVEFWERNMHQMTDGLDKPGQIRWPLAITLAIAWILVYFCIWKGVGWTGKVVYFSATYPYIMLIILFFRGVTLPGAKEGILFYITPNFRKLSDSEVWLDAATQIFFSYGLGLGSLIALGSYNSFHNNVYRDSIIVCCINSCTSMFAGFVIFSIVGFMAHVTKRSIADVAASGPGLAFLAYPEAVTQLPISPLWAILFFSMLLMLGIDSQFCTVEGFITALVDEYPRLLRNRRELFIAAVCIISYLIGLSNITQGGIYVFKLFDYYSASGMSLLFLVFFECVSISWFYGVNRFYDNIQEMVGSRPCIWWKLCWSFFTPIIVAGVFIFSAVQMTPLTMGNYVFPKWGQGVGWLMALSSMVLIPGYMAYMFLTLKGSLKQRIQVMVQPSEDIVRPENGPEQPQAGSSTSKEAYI

O=C(O)C1CCCN(CCC=C(c2ccccc2)c2ccccc2)C1 (stereo unspecified)
IC50: 200 nM
